Laboratory results from patent publication US7338958B2, “Sulfoximine-substituted pyrimidines as CDK-and/or VEGF inhibitors, their production and use as pharmaceutical agents” (Schering AG, priority 2003, dated 2008).

Sequences of proteins named here, by UniProt entry; tags and fusion partners are left off. Residues count along the entry.
UniProt P06493, whole entry: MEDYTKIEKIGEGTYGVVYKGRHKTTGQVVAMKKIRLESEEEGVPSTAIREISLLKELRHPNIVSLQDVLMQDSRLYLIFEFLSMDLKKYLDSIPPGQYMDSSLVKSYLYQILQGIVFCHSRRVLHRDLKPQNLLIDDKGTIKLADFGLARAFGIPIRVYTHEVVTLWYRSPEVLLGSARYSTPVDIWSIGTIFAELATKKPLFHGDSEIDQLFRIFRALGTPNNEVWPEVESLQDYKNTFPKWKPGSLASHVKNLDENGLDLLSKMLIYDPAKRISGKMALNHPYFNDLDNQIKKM
UniProt P35968, 20-1356: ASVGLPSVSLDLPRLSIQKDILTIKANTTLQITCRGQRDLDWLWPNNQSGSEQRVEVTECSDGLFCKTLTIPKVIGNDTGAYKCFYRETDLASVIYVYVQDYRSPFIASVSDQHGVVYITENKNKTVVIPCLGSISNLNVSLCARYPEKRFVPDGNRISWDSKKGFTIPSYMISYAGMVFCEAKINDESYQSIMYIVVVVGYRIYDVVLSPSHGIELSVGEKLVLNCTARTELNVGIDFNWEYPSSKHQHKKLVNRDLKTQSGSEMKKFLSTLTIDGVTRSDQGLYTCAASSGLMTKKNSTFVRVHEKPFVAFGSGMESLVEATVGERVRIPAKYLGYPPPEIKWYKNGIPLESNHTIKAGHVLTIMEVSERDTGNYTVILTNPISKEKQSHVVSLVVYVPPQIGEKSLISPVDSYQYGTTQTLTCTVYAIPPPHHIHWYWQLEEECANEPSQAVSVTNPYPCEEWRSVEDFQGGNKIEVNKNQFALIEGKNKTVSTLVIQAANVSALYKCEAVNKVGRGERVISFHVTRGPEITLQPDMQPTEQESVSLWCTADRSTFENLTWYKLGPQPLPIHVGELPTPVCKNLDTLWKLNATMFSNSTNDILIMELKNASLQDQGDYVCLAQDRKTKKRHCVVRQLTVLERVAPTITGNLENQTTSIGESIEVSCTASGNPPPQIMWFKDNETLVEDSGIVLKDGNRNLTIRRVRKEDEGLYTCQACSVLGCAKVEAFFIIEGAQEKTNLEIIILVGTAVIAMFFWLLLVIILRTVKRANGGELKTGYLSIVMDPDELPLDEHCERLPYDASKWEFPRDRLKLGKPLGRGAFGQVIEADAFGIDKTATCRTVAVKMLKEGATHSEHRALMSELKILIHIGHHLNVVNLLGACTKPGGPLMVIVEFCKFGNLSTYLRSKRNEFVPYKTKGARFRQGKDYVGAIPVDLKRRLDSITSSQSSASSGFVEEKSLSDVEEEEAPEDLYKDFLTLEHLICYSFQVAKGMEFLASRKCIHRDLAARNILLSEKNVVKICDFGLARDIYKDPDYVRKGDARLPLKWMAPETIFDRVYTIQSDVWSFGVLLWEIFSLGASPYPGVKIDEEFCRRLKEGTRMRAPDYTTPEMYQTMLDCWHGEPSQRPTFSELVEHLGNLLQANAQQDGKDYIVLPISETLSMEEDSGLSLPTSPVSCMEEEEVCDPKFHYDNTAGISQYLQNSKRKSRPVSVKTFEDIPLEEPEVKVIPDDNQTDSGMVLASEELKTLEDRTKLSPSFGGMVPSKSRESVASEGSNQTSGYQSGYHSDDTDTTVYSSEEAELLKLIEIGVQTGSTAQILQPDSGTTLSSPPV

The compounds below were run against T1, CDK1/CycB (Homo sapiens, UniProt P06493) (assay: CDK1/CycB Kinase Assay). Details: CDK1/CycB IC50, histone IIIS substrate, 33P-ATP, 15 minutes at 22° C.
T1 construct: GST; purchased ProQinase GmbH, Freiburg; host or cells: baculovirus-infected insect cells (Sf9)
Assay type: biochemical

Row | Structure (SMILES) | IC50 [nM]
1 | C[C@H](CO)Nc1nc(Nc2ccc(S(C)(=O)=NS(=O)(=O)CC[Si](C)(C)C)cc2)ncc1Br (mixture of isomers) [Example 2.1, (RS)-S-[4-({5-bromo-4-[(R)-(2-hydroxy-1-methylethyl)amino]pyrimidin-2-yl}amino)phenyl]-S-methyl-N-[2-(trimethylsilyl)ethylsulfonyl]sulfoximide] | > 1000

Same assay, conditions: histone IIIS substrate, 33P-ATP, 15 minutes at 22° C.; read-out: CDK1/CycB IC50

Row | Structure (SMILES) | IC50 [nM]
2 | CCS(=N)(=O)c1ccc(Nc2ncc(Br)c(N[C@H](COC)[C@@H](C)O)n2)cc1 (mixture of isomers) [Example 1.50, (RS)-S-{4-[(5-bromo-4-{[(1R,2R)-2-hydroxy-1-(methoxymethyl)-propyl]amino}pyrimidin-2-yl)amino]phenyl}-S-ethyl sulfoximide] | 44
3 | CCS(=N)(=O)c1ccc(Nc2ncc(Br)c(N[C@H](COC)[C@@H](C)O)n2)cc1 (mixture of isomers) [Example 1.48, (RS)-S-{4-[(5-bromo-4-{[(1R,2R)-2-hydroxy-1-(methoxymethyl)-propyl]amino}pyrimidin-2-yl)amino]phenyl}-S-ethyl sulfoximide] | 16
4 | CCOC(=O)N=S(C)(=O)c1ccc(Nc2ncc(Br)c(N[C@H](COC)[C@@H](C)O)n2)cc1 (mixture of isomers) [Example 1.34, (RS)-S-{4-[(5-bromo-4-{[(1R,2R)-2-hydroxy-1-(methoxymethyl)propyl]amino}pyrimidin-2-yl)amino]phenyl}-N-(ethoxycarbonyl)-S-methyl sulfoximide] | 110
5 | Cc1cc(Nc2ncc(Br)c(N[C@H](C)C(C)(C)O)n2)ccc1S(C)(=N)=O (mixture of isomers) [Example 1.59, (RS)-S-[4-({5-bromo-4-[(R)-(2-hydroxy-1,2-dimethylpropyl)amino]pyrimidin-2-yl}amino)-2-methylphenyl]-S-methyl sulfoximide] | 9
6 | CCS(=N)(=O)c1ccc(Nc2ncc(Br)c(N[C@H](C)C(C)(C)O)n2)cc1 (mixture of isomers) [Example 1.54, (RS)-S-[4-({5-bromo-4-[(R)-(2-hydroxy-1,2-dimethylpropyl)amino]pyrimidin-2-yl}amino)phenyl]-S-ethyl sulfoximide] | 8
7 | CCS(=N)(=O)c1ccc(Nc2ncc(Br)c(N[C@H](C)C(C)(C)O)n2)cc1 (mixture of isomers) [Example 1.55, (RS)-S-[4-({5-bromo-4-[(R)-(2-hydroxy-1,2-dimethylpropyl)amino]pyrimidin-2-yl}amino)phenyl]-S-ethyl sulfoximide] | 45
8 | C[C@@H](O)[C@@H](C)Nc1nc(Nc2ccc(S(C)(=N)=O)cc2)ncc1Br (mixture of isomers) [Example 1.44, (RS)-S-[4-({5-bromo-4-[(1R,2R)-(2-hydroxy-1-methylpropyl)amino]pyrimidin-2-yl}amino)phenyl]-S-methyl sulfoximide] | 5

What follows are compounds tested against T2, CDK2/CycE (Homo sapiens, UniProt P24941) (assay: CDK2/CycE Kinase Assay). Details: histone IIIS substrate, 33P-ATP, 15 minutes at 22° C.
T2 construct: GST; purchased ProQinase GmbH, Freiburg; host or cells: baculovirus-infected insect cells (Sf9)
Assay type: biochemical

Row | Structure (SMILES) | IC50 [nM]
9 | C[C@@H](O)[C@@H](C)Oc1nc(Nc2ccc(S(C)(=N)=O)cc2)ncc1Br (mixture of isomers) [Example 1.4, (RS)-S-[4-({5-bromo-4-[(1R,2R)-2-hydroxy-1-methylpropoxy]pyrimidin-2-yl}amino)phenyl]-S-methyl sulfoximide] | 10
10 | CCS(=N)(=O)c1ccc(Nc2ncc(Br)c(N[C@H](COC)[C@@H](C)O)n2)cc1 (mixture of isomers) [Example 1.48, (RS)-S-{4-[(5-bromo-4-{[(1R,2R)-2-hydroxy-1-(methoxymethyl)-propyl]amino}pyrimidin-2-yl)amino]phenyl}-S-ethyl sulfoximide] | 7
11 | CCOC(=O)N=S(=O)(CC)c1ccc(Nc2ncc(Br)c(N[C@H](COC)[C@@H](C)O)n2)cc1 (mixture of isomers) [Example 1.33, (RS)-S-{4-[(5-bromo-4-{[(1R,2R)-2-hydroxy-1-(methoxymethyl)propyl]amino}pyrimidin-2-yl)amino]phenyl}-N-(ethoxycarbonyl)-S-ethyl sulfoximide] | 51
12 | COc1cc(Nc2ncc(Br)c(N[C@H](C)[C@@H](C)O)n2)ccc1S(C)(=N)=O (single isomer, unassigned) [Example 1.25] | 3
13 | COc1cc(Nc2ncc(Br)c(O[C@H](C)[C@@H](C)O)n2)ccc1S(C)(=N)=O (mixture of isomers) [Example 1.24, (RS)-S-[4-({5-bromo-4-[(1R,2R)-2-hydroxy-1-methylpropoxy]pyrimidin-2-yl}amino)-2-methoxyphenyl]-S-methyl sulfoximide] | 8

These compounds were tested against T3, VEGF receptor tyrosine kinase-2 (Homo sapiens, UniProt P35968) (assay: VEGF Receptor-2 Kinase Assay). Details: poly-(Glu4Tyr) substrate, 33P-ATP, 10 minutes at 22° C.; read-out: VEGF-R2 IC50.
T3 construct: GST; made in house; host or cells: baculovirus-infected insect cells (Sf9)
Assay type: biochemical

Row | Structure (SMILES) | IC50 [nM]
14 | CN=S(C)(=O)c1ccc(Nc2ncc(Br)c(N[C@H](C)[C@@H](C)O)n2)cc1 (mixture of isomers) [Example 1.28, (RS)-S-[4-({5-bromo-4-[(1R,2R)-(2-hydroxy-1-methylpropyl)amino]pyrimidin-2-yl}amino)phenyl]-N,S-dimethyl-sulfoximide] | 37
15 | COc1cc(Nc2ncc(Br)c(N[C@H](C)[C@@H](C)O)n2)ccc1S(C)(=N)=O (single isomer, unassigned) [Example 1.25] | 70
16 | CN=S(C)(=O)c1ccc(Nc2ncc(Br)c(N[C@H](C)[C@@H](C)O)n2)cc1 (mixture of isomers) [Example 1.29, (RS)-S-[4-({5-bromo-4-[(1R,2R)-(2-hydroxy-1-methylpropyl)amino]pyrimidin-2-yl}amino)phenyl]-N,S-dimethyl-sulfoximide] | 16
17 | CN=S(C)(=O)c1ccc(Nc2ncc(Br)c(N[C@H](C)[C@@H](C)O)n2)cc1 (mixture of isomers) [Example 1.30, (RS)-S-[4-({5-bromo-4-[(1R,2R)-(2-hydroxy-1-methylpropyl)amino]pyrimidin-2-yl}amino)phenyl]-N,S-dimethyl-sulfoximide] | 29

Results, then the compound that gave them:

Row | IC50 [nM] | Structure (SMILES)
18 | 32 | CCS(=N)(=O)c1ccc(Nc2ncc(Br)c(N[C@H](C)C(C)(C)O)n2)cc1 (mixture of isomers) [Example 1.56, (RS)-S-[4-({5-bromo-4-[(R)-(2-hydroxy-1,2-dimethylpropyl)amino]pyrimidin-2-yl}amino)phenyl]-S-ethyl sulfoximide]
19 | 150 | CCOC(=O)N=S(=O)(CC)c1ccc(Nc2ncc(Br)c(O[C@H](C)[C@@H](C)O)n2)cc1 (mixture of isomers) [Example 1.39, (RS)-S-[4-({5-bromo-4-[(1R,2R)-2-hydroxy-1-methylpropoxy]pyrimidin-2-yl}amino)phenyl]-N-(ethoxycarbonyl)-S-ethyl sulfoximide]
20 | 300 | COC[C@@H](Nc1nc(Nc2ccc(S(C)(=N)=O)cc2)ncc1Br)[C@@H](C)O (mixture of isomers) [Example 1.47, (RS)-S-{4-[(5-bromo-4-{[(1R,2R)-2-hydroxy-1-(methoxymethyl)-propyl]amino}pyrimidin-2-yl)amino]phenyl}-S-methyl sulfoximide]
